# Experimental data: US11186582B2, “Substituted [1,2,4]triazolo[1,5-a]pyrimidin-7-yl compounds as PDE2 inhibitors” (DART NEUROSCIENCE (CAYMAN) LTD., priority 2014, dated 2021)
# By UniProt entry, the sequences of proteins in these tests, tags left out. Residues count along the entry.
# UniProt O00408, 2-941: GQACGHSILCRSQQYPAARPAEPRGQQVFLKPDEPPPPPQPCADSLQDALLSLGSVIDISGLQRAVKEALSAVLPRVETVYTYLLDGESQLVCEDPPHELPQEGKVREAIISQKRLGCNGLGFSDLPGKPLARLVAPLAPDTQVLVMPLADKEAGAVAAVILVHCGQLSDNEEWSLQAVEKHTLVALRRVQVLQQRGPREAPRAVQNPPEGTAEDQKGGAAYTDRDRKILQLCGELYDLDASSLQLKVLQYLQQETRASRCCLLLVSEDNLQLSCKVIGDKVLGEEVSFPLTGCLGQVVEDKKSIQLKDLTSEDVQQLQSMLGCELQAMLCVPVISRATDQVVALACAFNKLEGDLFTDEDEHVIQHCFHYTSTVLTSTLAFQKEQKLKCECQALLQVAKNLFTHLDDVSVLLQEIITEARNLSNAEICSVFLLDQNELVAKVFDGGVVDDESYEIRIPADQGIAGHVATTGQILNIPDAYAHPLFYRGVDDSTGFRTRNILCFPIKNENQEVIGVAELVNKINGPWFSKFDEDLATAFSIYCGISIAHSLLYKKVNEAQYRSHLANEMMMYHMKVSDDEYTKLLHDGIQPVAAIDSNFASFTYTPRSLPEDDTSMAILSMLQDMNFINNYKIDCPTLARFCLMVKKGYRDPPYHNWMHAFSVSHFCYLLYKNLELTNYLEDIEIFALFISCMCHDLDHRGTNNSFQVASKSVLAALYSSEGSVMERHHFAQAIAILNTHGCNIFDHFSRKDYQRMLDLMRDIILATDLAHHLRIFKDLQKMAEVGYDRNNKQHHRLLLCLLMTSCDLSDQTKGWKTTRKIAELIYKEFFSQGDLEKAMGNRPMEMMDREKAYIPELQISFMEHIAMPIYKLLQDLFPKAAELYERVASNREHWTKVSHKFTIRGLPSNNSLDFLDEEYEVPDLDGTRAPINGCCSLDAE
# Target: FLAG-tagged PDE2A1 (amino acids 2-941) (Homo sapiens (Human), UniProt O00408)
# Experiment: IMAP TR-FRET PDE2A phosphodiesterase enzymatic assay
# Settings: not given
row,Structure (SMILES),IC50
1,"Cc1cc(C2CN(C(=O)c3cccc(C(C)C)c3)CC(F)(F)C2)n2ncnc2n1 (stereo not shown) [Example 531, 3,3-Difluoro-5-{5-methyl-[1,2,4]triazolo[1,5-a]pyrimidin-7-yl}-1-[3-(propan-2-yl)benzoyl]piperidine]",100 to 1000 nM
2,"Cc1cc(C2CN(C(=O)c3cc4ccccc4n3C)CCO2)n2ncnc2n1 (stereo not shown) [Example 533, 1-Methyl-2-(2-{5-methyl-[1,2,4]triazolo[1,5-a]pyrimidin-7-yl}morpholine-4-carbonyl)-1H-indole]",100 to 1000 nM
3,"Cc1cc(C2CN(C(=O)c3cc(F)cc(Cl)c3)CCO2)n2ncnc2n1 (stereo not shown) [Example 536, 4-(3-Chloro-5-fluorobenzoyl)-2-{5-methyl-[1,2,4]triazolo[1,5-a]pyrimidin-7-yl}morpholine]",100 to 1000 nM
4,"COc1cc(C)ccc1C(=O)N1CCOC(c2cc(C)nc3ncnn23)C1 (stereo not shown) [Example 537, 4-(2-Methoxy-4-methylbenzoyl)-2-{5-methyl-[1,2,4]triazolo[1,5-a]pyrimidin-7-yl}morpholine]",1000 to 10000 nM
5,"Cc1cc(C2CN(C(=O)c3ccc4nccn4c3)CCO2)n2ncnc2n1 (stereo not shown) [Example 538, 4-{Imidazo[1,2-a]pyridine-6-carbonyl}-2-{5-methyl-[1,2,4]triazolo[1,5-a]pyrimidin-7-yl}morpholine]",100 to 1000 nM
6,"Cc1cc(C2CN(C(=O)c3cc4ccccc4o3)CCO2)n2ncnc2n1 (stereo not shown) [Example 539, 4-(1-Benzofuran-2-carbonyl)-2-{5-methyl-[1,2,4]triazolo[1,5-a]pyrimidin-7-yl}morpholine]",100 to 1000 nM
7,"Cc1cc(C2CN(C(=O)c3cnc4ccccc4n3)CCO2)n2ncnc2n1 (stereo not shown) [Example 540, 2-(2-{5-Methyl-[1,2,4]triazolo[1,5-a]pyrimidin-7-yl}morpholine-4-carbonyl)quinoxaline]",100 to 1000 nM
8,"Cc1cc(C2CN(C(=O)c3csc4ccccc34)CCO2)n2ncnc2n1 (stereo not shown) [Example 541, 4-(1-Benzothiophene-3-carbonyl)-2-{5-methyl-[1,2,4]triazolo[1,5-a]pyrimidin-7-yl}morpholine]",100 to 1000 nM
9,"COc1ccc(C)cc1C(=O)N1CCOC(c2cc(C)nc3ncnn23)C1 (stereo not shown) [Example 542, 4-(2-Methoxy-5-methylbenzoyl)-2-{5-methyl-[1,2,4]triazolo[1,5-a]pyrimidin-7-yl}morpholine]",100 to 1000 nM
10,"Cc1cc(C2CN(C(=O)c3ccc(C(F)F)cc3)CCO2)n2ncnc2n1 (stereo not shown) [Example 543, 4-[4-(Difluoromethyl)benzoyl]-2-{5-methyl-[1,2,4]triazolo[1,5-a]pyrimidin-7-yl}morpholine]",> 10000 nM
11,"COc1ccc(C(=O)N2CCOC(c3cc(C)nc4ncnn34)C2)cc1OC (stereo not shown) [Example 544, 4-(3,4-Dimethoxybenzoyl)-2-{5-methyl-[1,2,4]triazolo[1,5-a]pyrimidin-7-yl}morpholine]",100 to 1000 nM
12,"Cc1cc(C2CN(C(=O)c3cc(Cl)ccc3F)CCO2)n2ncnc2n1 (stereo not shown) [Example 545, 4-(5-Chloro-2-fluorobenzoyl)-2-{5-methyl-[1,2,4]triazolo[1,5-a]pyrimidin-7-yl}morpholine]",1000 to 10000 nM
13,"Cc1cc(C2CN(C(=O)c3ccc(F)c(C)c3)CCO2)n2ncnc2n1 (stereo not shown) [Example 546, 4-(4-Fluoro-3-methylbenzoyl)-2-{5-methyl-[1,2,4]triazolo[1,5-a]pyrimidin-7-yl}morpholine]",100 to 1000 nM
14,"COc1cccc(C(=O)N2CCOC(c3cc(C)nc4ncnn34)C2)c1 (stereo not shown) [Example 548, 4-(3-Methoxybenzoyl)-2-{5-methyl-[1,2,4]triazolo[1,5-a]pyrimidin-7-yl}morpholine]",1000 to 10000 nM
15,"Cc1cc(C2CN(C(=O)c3ccc4c(c3)OCO4)CCO2)n2ncnc2n1 (stereo not shown) [Example 549, 4-(2H-1,3-Benzodioxole-5-carbonyl)-2-{5-methyl-[1,2,4]triazolo[1,5-a]pyrimidin-7-yl}morpholine]",100 to 1000 nM
16,"COc1cc(C(=O)N2CCOC(c3cc(C)nc4ncnn34)C2)ccn1 (stereo not shown) [Example 550, 4-(2-Methoxypyridine-4-carbonyl)-2-{5-methyl-[1,2,4]triazolo[1,5-a]pyrimidin-7-yl}morpholine]",1000 to 10000 nM
17,"Cc1cc(C2CN(C(=O)c3ccc4c(c3)OCCO4)CCO2)n2ncnc2n1 (stereo not shown) [Example 551, 4-(2,3-Dihydro-1,4-benzodioxine-6-carbonyl)-2-{5-methyl-[1,2,4]triazolo[1,5-a]pyrimidin-7-yl}morpholine]",100 to 1000 nM
18,"Cc1cc(C2CN(C(=O)c3ccc(C(C)C)cc3)CCO2)n2ncnc2n1 (stereo not shown) [Example 553, 2-{5-Methyl-[1,2,4]triazolo[1,5-a]pyrimidin-7-yl}-4-[4-(propan-2-yl)benzoyl]morpholine]",1000 to 10000 nM
19,"Cc1ccc(F)c(C(=O)N2CCOC(c3cc(C)nc4ncnn34)C2)c1 (stereo not shown) [Example 554, 4-(2-Fluoro-5-methylbenzoyl)-2-{5-methyl-[1,2,4]triazolo[1,5-a]pyrimidin-7-yl}morpholine]",1000 to 10000 nM
20,"COc1cc(F)cc(C(=O)N2CCOC(c3cc(C)nc4ncnn34)C2)c1 (stereo not shown) [Example 555, 4-(3-Fluoro-5-methoxybenzoyl)-2-{5-methyl-[1,2,4]triazolo[1,5-a]pyrimidin-7-yl}morpholine]",1000 to 10000 nM
21,"COc1c(C(=O)N2CCOC(c3cc(C)nc4ncnn34)C2)ccc2ccccc12 (stereo not shown) [Example 556, 4-(1-Methoxynaphthalene-2-carbonyl)-2-{5-methyl-[1,2,4]triazolo[1,5-a]pyrimidin-7-yl}morpholine]",100 to 1000 nM
22,"Cc1cc(C2CN(C(=O)c3ccc4c(c3)OC(F)(F)O4)CCO2)n2ncnc2n1 (stereo not shown) [Example 560, 4-(2,2-Difluoro-2H-1,3-benzodioxole-5-carbonyl)-2-{5-methyl-[1,2,4]triazolo[1,5-a]pyrimidin-7-yl}morpholine]",1000 to 10000 nM
23,"Cc1cc(C2CN(C(=O)c3cccc(C(C)C)c3)CCO2)n2ncnc2n1 (stereo not shown) [Example 561, 2-{5-Methyl-[1,2,4]triazolo[1,5-a]pyrimidin-7-yl}-4-[3-(propan-2-yl)benzoyl]morpholine]",100 to 1000 nM
24,"Cc1cc(C2CN(C(=O)C3CCc4ccccc4O3)CCO2)n2ncnc2n1 (stereo not shown) [Example 564, 4-(3,4-Dihydro-2H-1-benzopyran-2-carbonyl)-2-{5-methyl-[1,2,4]triazolo[1,5-a]pyrimidin-7-yl}morpholine]",100 to 1000 nM

# Same assay, conditions: IMAP TR-FRET, 200 nM FAM-cAMP substrate, 11-point half-log dose-response
row,Structure (SMILES),PDE2 (pIC50)
1,"Cc1cc(C2CN(C(=O)c3cnn(-c4ccccc4)c3)CC(F)(F)C2)n2ncnc2n1 (stereo not shown) [Example 532, 3,3-Difluoro-5-{5-methyl-[1,2,4]triazolo[1,5-a]pyrimidin-7-yl}-1-(1-phenyl-1H-pyrazole-4-carbonyl)piperidine]",>7
2,"Cc1cc(C2CN(C(=O)c3ccc4occc4c3)CCO2)n2ncnc2n1 (stereo not shown) [Example 534, 4-(1-Benzofuran-5-carbonyl)-2-{5-methyl-[1,2,4]triazolo[1,5-a]pyrimidin-7-yl}morpholine]",>7
3,"Cc1cc(C2CN(C(=O)c3ccc4sccc4c3)CCO2)n2ncnc2n1 (stereo not shown) [Example 535, 4-(1-Benzothiophene-5-carbonyl)-2-{5-methyl-[1,2,4]triazolo[1,5-a]pyrimidin-7-yl}morpholine]",>7
4,"COc1ccc(C(=O)N2CCOC(c3cc(C)nc4ncnn34)C2)cc1C (stereo not shown) [Example 547, 4-(4-Methoxy-3-methylbenzoyl)-2-{5-methyl-[1,2,4]triazolo[1,5-a]pyrimidin-7-yl}morpholine]",>7
5,"COc1cc2ccccc2cc1C(=O)N1CCOC(c2cc(C)nc3ncnn23)C1 (stereo not shown) [Example 552, 4-(3-Methoxynaphthalene-2-carbonyl)-2-{5-methyl-[1,2,4]triazolo[1,5-a]pyrimidin-7-yl}morpholine]",>7
6,"COc1ccc2cc(C(=O)N3CCOC(c4cc(C)nc5ncnn45)C3)ccc2c1 (stereo not shown) [Example 557, 4-(6-Methoxynaphthalene-2-carbonyl)-2-{5-methyl-[1,2,4]triazolo[1,5-a]pyrimidin-7-yl}morpholine]",>7
7,"Cc1cc(C2CN(C(=O)c3cc(-c4ccccc4)nn3C)CCO2)n2ncnc2n1 (stereo not shown) [Example 558, 4-(1-Methyl-3-phenyl-1H-pyrazole-5-carbonyl)-2-{5-methyl-[1,2,4]triazolo[1,5-a]pyrimidin-7-yl}morpholine]",>7
8,"Cc1cc(C2CN(C(=O)c3ccc4cc(F)ccc4c3)CCO2)n2ncnc2n1 (stereo not shown) [Example 559, 4-(6-Fluoronaphthalene-2-carbonyl)-2-{5-methyl-[1,2,4]triazolo[1,5-a]pyrimidin-7-yl}morpholine]",>7
9,"Cc1cc(C2CN(C(=O)C3CCc4cc(F)ccc4O3)CC(F)(F)C2)n2ncnc2n1 (stereo not shown) [Example 562, 3,3-Difluoro-1-(6-fluoro-3,4-dihydro-2H-1-benzopyran-2-carbonyl)-5-{5-methyl-[1,2,4]triazolo[1,5-a]pyrimidin-7-yl}piperidine]",>7
10,"Cc1cc(C2CN(C(=O)C3CCc4ccccc4O3)CC(F)(F)C2)n2ncnc2n1 (stereo not shown) [Example 563, 1-(3,4-Dihydro-2H-1-benzopyran-2-carbonyl)-3,3-difluoro-5-{5-methyl-[1,2,4]triazolo[1,5-a]pyrimidin-7-yl}piperidine]",>7
